The target of this assay is 5-hydroxytryptamine receptor 1B (Homo sapiens, UniProt P28222). Description: Binding affinity to 5-HT1B receptor (unknown origin) assessed as inhibition constant.

Sequences of proteins named here, by UniProt entry; tags and fusion partners are left off.
UniProt P28222, whole entry: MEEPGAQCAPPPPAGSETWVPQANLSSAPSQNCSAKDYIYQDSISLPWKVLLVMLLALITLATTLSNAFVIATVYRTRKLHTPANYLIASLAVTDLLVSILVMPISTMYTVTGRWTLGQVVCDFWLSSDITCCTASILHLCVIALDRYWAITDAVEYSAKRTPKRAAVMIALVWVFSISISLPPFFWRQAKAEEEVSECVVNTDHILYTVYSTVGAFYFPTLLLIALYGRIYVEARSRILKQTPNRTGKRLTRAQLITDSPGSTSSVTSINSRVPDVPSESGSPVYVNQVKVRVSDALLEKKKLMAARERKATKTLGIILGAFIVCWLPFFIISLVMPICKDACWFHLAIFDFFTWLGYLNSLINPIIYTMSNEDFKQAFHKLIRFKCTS

Take `CN[C@@H]1CCc2[nH]c3ccc(C(N)=O)cc3c2C1` [FROVATRIPTAN]: the Ki came to 4.4 nM.

As a reminder, the Ki is the equilibrium dissociation constant of an inhibitor or competing ligand from its target.

These data come from ChEMBL document CHEMBL5344475, “Indole-containing pharmaceuticals: targets, pharmacological activities, and SAR studies” (RSC Med Chem, 2024).
